Measured values reported in patent US12053529B2, “Amino-reactive positively charged ATRP initiators that maintain their positive charge during synthesis of biomacro-initiators” (Carnegie Mellon University, priority 2018, dated 2024).

Molecular target: N-succinyl-Ala-Ala-Pro-Phe-p-nitroanilide (Artificial Sequence)

kcat/KM (Michaelis-Menten kinetics of substrate hydrolysis, pH 8, 37° C.): 0.25 µM^-1s^-1
Substance: α-chymotrypsin (CT) from bovine pancreas (type II) (from UniProt P00766) (enzyme)
